The test system of series [1] is HEK293. Put plainly: Selectivity ratio of Ki for human opioid delta receptor expressed in HEK293 cells to Ki for human opioid kappa receptor expressed in CHO cells. The format is cell-based.
In series [2] the test system is CHO. Put plainly: Selectivity ratio of Ki for human opioid mu receptor expressed in CHO cells to Ki for human opioid kappa receptor expressed in CHO cells. The format is cell-based.
Series [3] concerns Striatum. Put plainly: Ratio of drug uptake in striatum to cerebellum in rat at 1 ug/kg, iv measured after 40 mins by LC/MS/MS analysis. To be noted: in vivo, 0.001 mg/kg.

Each structure is given as a SMILES string. Bounds are passed on as bounds.

Take `CC1(C)CN(Cc2ccc(Oc3ccc(C(N)=O)cn3)cc2)C1c1ccccc1` (racemic): the Ratio Ki was > 350 in series [1] and 37 in series [2].
The matching figures for `CC1(C)CN(Cc2ccc(Oc3ccc(C(N)=O)cn3)cc2)[C@H]1c1ccccc1`: > 19 and 4.
As to `CC1(C)CN(Cc2ccc(Oc3ccc(C(N)=O)cn3)cc2)[C@@H]1c1ccccc1`, the Ratio Ki is > 475 in series [1] and 41 in series [2]. Besides, in series [3], the Ratio is given as 0.3.

These data come from ChEMBL document CHEMBL1921714, “Discovery of aminobenzyloxyarylamides as κ opioid receptor selective antagonists: application to preclinical development of a κ opioid receptor antagonist receptor occupancy tracer” (J Med Chem, 2011).
